Assay results reported in US4178371A, “Tetrapeptide derivatives” (Reckitt & Colman Products Limited, priority 1977, dated 1979).

Test system: opiate receptor sites
Conditions: isolated guinea pig ileum twitch response, dose response curve compared with Met enkephalin
Text: The test used for the detection of their agonist activity at opiate receptor sites is that employing the transmurally stimulates guinea pig ileum preparation described in Kosterlitz et al., Brit. J. Pharmacol, and Chemotherapy 33. 266-276 (1968). […] Exp. Ther. 125, 237 (1959) and by the rat tail flick test (intravenous administration) according to Jansen et al., Arzneim Forsch. 13, 266 (1963).
In the above mentioned test method of Kosterlitz et al male or female guinea pigs (Duncan Hartley strain) are killed by a blow on the head and a portion of the ileum removed and set up in an isolated organ bath of 50 ml volume. A `twitch` response is produced by low frequency (0.1 Hz) stimulation with 0.5 msec rectilinear pulses. A test compound is dissolved in distilled water to produce a stock solution of concentration 1 mg/ml. Serial dilutions are carried out using Krebs solution to produce concentrations of 10 μg, 1 μg and 0.1 μg/ml. The compound is tested by adding between 0.1-0.3 ml of the solutions to the organ bath. A dose response curve is then drawn and compared with that for Met enkephalin.

For `CN1CC[C@]23c4c5ccc(O)c4O[C@H]2[C@@H](O)C=C[C@H]3[C@H]1C5` [Morphine, reference compound], the “G.P.I. Potency (X Met enkephalin)” value was “≈ 1.0 X Met enkephalin”.
